Here are results for 2 molecules from ChEMBL document CHEMBL1122013, “Inhibitors of gastric acid secretion: 3,4-diamino-1,2,5-thiadiazole 1-oxides and 1,1-dioxides as urea equivalents in a series of histamine H2-receptor antagonists” (J Med Chem, 1982).

Chains of the proteins cited; added tags and fusions are not shown.
UniProt P47747, whole entry: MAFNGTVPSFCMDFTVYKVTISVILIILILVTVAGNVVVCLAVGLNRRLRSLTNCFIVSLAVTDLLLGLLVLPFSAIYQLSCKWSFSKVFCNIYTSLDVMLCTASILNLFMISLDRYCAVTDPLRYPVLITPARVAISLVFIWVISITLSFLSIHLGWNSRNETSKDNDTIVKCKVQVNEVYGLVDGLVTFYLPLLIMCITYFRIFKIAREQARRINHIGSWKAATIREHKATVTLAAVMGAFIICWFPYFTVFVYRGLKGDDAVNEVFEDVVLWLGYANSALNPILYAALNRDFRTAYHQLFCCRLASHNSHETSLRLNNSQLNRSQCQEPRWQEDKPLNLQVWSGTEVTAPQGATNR

Test [1] has as its target Histamine H2 receptor (Cavia porcellus, UniProt P47747). The test can be described thus: In vitro inhibition of Histamine H2 receptor by measuring its ability to block the histamine-stimulated adenylate cyclase of guinea pig hippocampal homogenate. The format is tissue-based, Hippocampus.
Test [2] has as its target Histamine H2 receptor (Cavia porcellus) (UniProt P47747). The test can be described thus: In vitro inhibition of Histamine H2 receptor by measuring its ability to block dimaprit-stimulated chronotropic response of guinea pig atrium strips. Particulars: Cardiac atrium. It is filed as functional, tissue-based.

By Ki is commonly meant a dissociation constant, usually derived from enzyme kinetics or from competition with a known ligand. A low value points to higher affinity.

On to `CN/C(=N/CCSCc1nc[nH]c1C)NC#N` [CIMETIDINE], for which, in test [1], affinity was put at a Ki of 501 nM.
In test [2], `CN/C(=N\CCSCc1nc[nH]c1C)NC#N` [CIMETIDINE] yielded a -Log KB of 6.31.
